Assay results as given in patent publication US10213474B2, “Delivery of drugs” (Nanomerics LTD, priority 2013, dated 2019).

The chains behind the UniProt entries cited, without tags or fusion partners. Where a name states a change or a piece, a line headed by the entry shows the natural chain unless it says otherwise.
UniProt P01210: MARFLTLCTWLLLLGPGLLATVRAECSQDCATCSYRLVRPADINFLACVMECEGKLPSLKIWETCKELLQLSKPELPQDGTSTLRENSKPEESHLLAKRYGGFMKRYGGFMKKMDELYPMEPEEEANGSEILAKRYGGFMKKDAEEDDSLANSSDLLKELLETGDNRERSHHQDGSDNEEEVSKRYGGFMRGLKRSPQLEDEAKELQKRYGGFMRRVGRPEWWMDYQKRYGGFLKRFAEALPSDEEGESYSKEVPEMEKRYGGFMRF

Test system: CFA induced chronic inflammatory pain (mechanical hypersensitivity)
Assay: Complete Freund's Adjuvant (CFA) rat inflammatory pain model, paw withdrawal to von Frey hairs after intranasal administration
Assay type: in vivo, Sprague Dawley rats
Conditions: Example 1, FIG. 1; intranasal 7.5 mg kg−1 LENK (30 mg mL−1); 20, 40 min, 1, 1.5, 2, 3 and 4 hr
Experimental: Sprague Dawley rats (200-250 g) were housed four per cage in an air conditioned unit maintained at 20-22° C. and 50-60% humidity and were allowed free access to standard rodent chow and water. Lighting was controlled on a twelve-hour cycle, lights on at 07.00 h. Animals were habituated for 7 days prior to experimentation and acclimatised to the procedure room for 1 hr prior to testing. All protocols were conducted under a UK Home office licence and approved by a local ethics committee.
Rats were intranasally administered water for injection (0.05 ml), intranasal LENK hydrochloride salt in water 30 mg mL^−1, (7.5 mg kg^−1, pH=5.8, 50 μL), GCPQ-LENK in water composed of LENK hydrochloride salt 30 mg mL^−1, (7.5 mg kg^−1, pH=5.8, 50 μL) and GCPQ (30 mg mL^−1). […] The administered volume was adjusted based on the high performance liquid chromatography (HPLC) quantification of LENK and the body weight of each animal. […]
Rats received an intraplantar injection of 100 μL of CFA (Mycobacterium tuberculosis heat killed suspended in 85% paraffin oil and 15% mannide monooleate 1 mg/ml, Sigma) using a glass Hamilton syringe with a 25 G needle. CFA caused hind paw oedema and mechanical hypersensitivity was evaluated 24 hr after CFA injection.
Mechanical hypersensitivity was evaluated. […] The lowest amount of force required to elicit a response was recorded as the paw withdrawal (g). […]

For “Leucine5-enkephalin (YGGFL; Leu-enkephalin hydrochloride salt; UniProt P01210 230-234, looked up) [LENK solution, intranasal LENK hydrochloride salt in water 30 mg mL−1, pH 5.8]”, the “difference in paw withdrawal versus vehicle control” value was “No statistical difference”.
